Assay results: publication PMC5748279, “Novel Antitubercular 6-Dialkylaminopyrimidine Carboxamides from Phenotypic Whole-Cell High Throughput Screening of a SoftFocus Library: Structure–Activity Relationship and Target Identification Studies” (Journal of Medicinal Chemistry, 2017)

Sequences of proteins named here, by UniProt entry; tags and fusion partners are left off. Residues count along the entry.
UniProt A0A1R3Y3B6, 1-374: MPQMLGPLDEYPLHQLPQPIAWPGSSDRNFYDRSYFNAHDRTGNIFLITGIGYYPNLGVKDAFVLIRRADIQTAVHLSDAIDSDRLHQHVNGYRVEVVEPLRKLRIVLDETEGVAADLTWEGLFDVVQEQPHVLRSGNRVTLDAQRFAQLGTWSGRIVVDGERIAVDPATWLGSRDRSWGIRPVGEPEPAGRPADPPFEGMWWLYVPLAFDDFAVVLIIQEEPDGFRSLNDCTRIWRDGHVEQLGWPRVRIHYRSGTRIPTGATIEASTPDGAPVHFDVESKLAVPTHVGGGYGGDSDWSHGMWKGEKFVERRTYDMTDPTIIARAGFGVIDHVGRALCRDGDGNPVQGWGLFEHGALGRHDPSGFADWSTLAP

Tests used:
[1] = tested on: Mycobacterium tuberculosis (H37RvMa); format: cell-based; conditions: versus compound 1
BCG_3827 (Rv3768) = format: binding, Mycobacterium bovis BCG
BCG_3193 (Rv3169) = BCG_3193 (Rv3169) (Mycobacterium bovis BCG, UniProt A0A1R3Y3B6); format: binding

## CN(Cc1ccc(C(F)(F)F)cc1)c1cc(C(=O)Nc2ccccc2)ncn1 [Compound 12, 6-(Methyl(4-(trifluoromethyl)benzyl)amino)-N-phenylpyrimidine-4-carboxamide]
[1]; 7H9/ADC medium
  fold more potent in 7H9/ADC compared to 1: ≥ 4 fold
[1]; GAST/Fe medium
  fold more potent in GAST/Fe compared to 1: ≥ 2 fold

## CN1CCN(c2ccc(NC(=O)c3cc(N(C)Cc4ccc(C(F)(F)F)cc4)ncn3)cc2)CC1 [Compound 40, 6-(Methyl(4-(trifluoromethyl)benzyl)amino)-N-(4-(4-methylpiperazin-1-yl)phenyl)pyrimidine-4-carboxamide]
BCG_3827 (Rv3768)
  relative abundance, compound competition 0.029 µM 40: 0.93
  relative abundance, compound competition 0.117 µM 40: 1.08
  relative abundance, compound competition 0.47 µM 40: 0.95
  relative abundance, compound competition 1.88 µM 40: 0.86
  relative abundance, compound competition 7.5 µM 40: 0.71
  relative abundance, compound competition 30 µM 40: 0.35
BCG_3193 (Rv3169)
  relative abundance, compound competition 0.029 µM 40: 0.92
  relative abundance, compound competition 0.117 µM 40: 1.15
  relative abundance, compound competition 0.47 µM 40: 0.76
  relative abundance, compound competition 1.88 µM 40: 0.30
  relative abundance, compound competition 7.5 µM 40: 0.12
  relative abundance, compound competition 30 µM 40: 0.074
